Source: patent US20140165223A1, “TNF SUPERFAMILY TRIMERIZATION INHIBITORS” (B.S.R.C. "Alexander Fleming", priority 2011, published 2014)

Amino acid sequences for entries named in this document (tags omitted). Residues count along the entry.
UniProt O14788, 143-317 limits assumed: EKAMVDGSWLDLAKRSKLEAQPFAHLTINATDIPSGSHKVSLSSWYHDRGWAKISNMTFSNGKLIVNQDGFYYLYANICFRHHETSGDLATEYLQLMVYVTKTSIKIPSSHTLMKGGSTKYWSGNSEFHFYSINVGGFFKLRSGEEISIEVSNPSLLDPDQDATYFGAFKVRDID
UniProt P01375, 77-233 limits assumed: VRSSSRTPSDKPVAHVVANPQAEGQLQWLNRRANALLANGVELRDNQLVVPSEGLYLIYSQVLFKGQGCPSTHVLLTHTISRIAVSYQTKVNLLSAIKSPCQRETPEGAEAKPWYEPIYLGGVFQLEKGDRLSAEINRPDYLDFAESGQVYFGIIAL
UniProt P01375, whole entry: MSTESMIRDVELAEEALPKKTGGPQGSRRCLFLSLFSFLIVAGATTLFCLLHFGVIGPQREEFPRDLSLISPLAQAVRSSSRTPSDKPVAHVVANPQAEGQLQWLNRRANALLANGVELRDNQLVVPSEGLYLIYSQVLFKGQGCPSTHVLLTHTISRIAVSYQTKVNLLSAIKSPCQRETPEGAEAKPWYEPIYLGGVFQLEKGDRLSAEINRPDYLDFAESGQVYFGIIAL

How the values were obtained:
human RANKL [1] = target: T1, human RANKL (Homo sapiens, UniProt O14788); test: RANKL-mediated osteoclastogenesis assay with human RANKL; format: cell-based; details: 5 μM (FIG. 14B)
L929 cells = test: Compound toxicity in L929 cells (TNF and actinomycin D omitted); format: cell-based; details: at least up to a concentration of 20 μM; without TNF
Experimental: FIG. 17. Inhibition of TNF-induced death in L929 cells. Increasing concentrations of the two compounds (Panel a, compound 1=T23; Panel b, compound 2=PRA224) were used to pre-incubate human TNF before addition to cells for 18 hours. Shown are mean values (n=3) relative to controls (TNF pre-incubated with DMSO). Data shown are representative of at least three experiments. In parallel experiments, the toxicity of the compounds was tested also in L929 cells using the same approach but omitting TNF and actinomycin D from the experimental set-up (Panel c, compound 1; Panel d, compound 2). Shown are mean values (n=3) relative to controls (DMSO-treated cells). Data shown are representative of at least three experiments.
Considering that the read-out of this assay is protection of death, it can also give an indication of the toxicity of the compounds; if they be more toxic than protective, no inhibition would be detected.

TNF [2] = target: T2, TNF (Homo sapiens, UniProt P01375); test: TNF-induced MMP9 release in wild-type synovial fibroblasts (gelatin zymography); details: wild-type synovial fibroblasts stimulated by TNF, 18 hours
osteoclast precursors = test: MTT survival assay in osteoclast precursors; details: read-out: IC50 in MTT survival assay (cell toxicity), M-CSF, 1-20 μM, 2 days
TNF [3] = target: T2, TNF; test: MMP9 release in synovial fibroblasts from the human TNF-transgenic mouse (gelatin zymography); details: TNF over-expressing synovial fibroblasts, no stimulation
TNF/TNF-R1 interaction = TNF/TNF-R1 interaction (Homo sapiens, UniProt P01375); test: TNF/TNF-R1 ELISA; details: data not shown
human RANKL [4] = target: T1, human RANKL; test: Human RANKL cross-linking (DSS) and Western blot; format: biochemical; details: molar ratios small molecule:trimeric human RANKL from 1:1 to 100:1

SMILES: COc1cc(OC(C)=O)c(-c2cc(OC(C)=O)c(OC)cc2OC(C)=O)cc1OC(C)=O
- inhibition of RANKL activity in osteoclastogenesis assays (human RANKL [1]): inhibited human RANK activity
- toxicity of the compounds in L929 cells (L929 cells): minimally toxic
- release of MMP9 (TNF [2]): dose-dependent reduction
- IC50 (osteoclast precursors): 8 µM
- release of MMP9 (TNF [3]): a reduction can also be observed
- inhibition of the TNF/TNF-R1 interaction (TNF/TNF-R1 interaction): not found to inhibit
- effect on RANKL trimerization (RANKL monomer levels) (human RANKL [4]): induced an increase of RANKL inactive monomers at the ratios of 3:1 and 10:1
